From article PMC8860610, “The fork protection complex recruits FACT to reorganize nucleosomes during replication” (Nucleic Acids Research, 2022)

Molecular target: T1, Tof1ΔC-Csm3 (Tof1ΔC 1-937 aa) (Saccharomyces cerevisiae, UniProt P53840 1-937; Q04659 1-317)
T1 sequence (looked up) 1: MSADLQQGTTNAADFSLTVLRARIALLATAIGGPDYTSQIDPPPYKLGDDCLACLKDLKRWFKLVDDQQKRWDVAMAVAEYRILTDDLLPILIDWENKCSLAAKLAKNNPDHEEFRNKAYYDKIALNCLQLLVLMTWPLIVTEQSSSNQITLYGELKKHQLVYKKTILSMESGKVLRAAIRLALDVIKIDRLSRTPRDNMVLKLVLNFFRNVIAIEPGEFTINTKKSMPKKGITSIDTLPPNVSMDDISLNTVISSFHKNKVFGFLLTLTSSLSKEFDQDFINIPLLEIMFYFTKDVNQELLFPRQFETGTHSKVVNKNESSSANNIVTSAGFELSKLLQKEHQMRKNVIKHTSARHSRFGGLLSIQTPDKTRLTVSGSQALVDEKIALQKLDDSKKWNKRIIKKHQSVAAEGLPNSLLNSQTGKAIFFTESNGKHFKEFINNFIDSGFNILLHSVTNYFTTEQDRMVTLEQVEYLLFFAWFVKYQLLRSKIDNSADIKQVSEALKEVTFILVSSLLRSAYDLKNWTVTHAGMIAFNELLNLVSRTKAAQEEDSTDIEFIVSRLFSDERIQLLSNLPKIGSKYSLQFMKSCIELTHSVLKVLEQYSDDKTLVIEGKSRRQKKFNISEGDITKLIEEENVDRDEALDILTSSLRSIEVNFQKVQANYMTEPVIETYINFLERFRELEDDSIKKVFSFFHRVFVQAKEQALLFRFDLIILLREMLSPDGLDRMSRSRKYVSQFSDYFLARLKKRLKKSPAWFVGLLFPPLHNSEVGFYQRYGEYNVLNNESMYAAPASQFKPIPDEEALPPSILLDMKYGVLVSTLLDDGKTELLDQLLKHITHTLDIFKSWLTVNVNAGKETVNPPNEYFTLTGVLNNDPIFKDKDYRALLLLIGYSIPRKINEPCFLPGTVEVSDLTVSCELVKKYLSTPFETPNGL
T1 sequence (looked up) 2: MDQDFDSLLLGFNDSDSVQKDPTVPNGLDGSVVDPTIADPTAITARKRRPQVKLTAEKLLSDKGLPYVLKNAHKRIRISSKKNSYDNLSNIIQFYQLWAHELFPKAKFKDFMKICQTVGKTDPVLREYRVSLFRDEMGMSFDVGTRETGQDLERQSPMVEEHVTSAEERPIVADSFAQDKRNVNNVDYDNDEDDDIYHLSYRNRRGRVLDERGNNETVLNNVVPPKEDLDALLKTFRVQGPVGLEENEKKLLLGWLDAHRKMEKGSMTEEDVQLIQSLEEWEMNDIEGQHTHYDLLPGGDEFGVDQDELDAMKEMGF
Assay: cell-based or functional assay

decrease in in vitro chromatin replication (leading-strand length), 50 nM FACT with 20 nM Tof1ΔC-Csm3 against fl Tof1-Csm3; recovered by 8-fold excess of FACT: 66%
B1: full-length (fl) FACT (Spt16-Pob3) (complex, Saccharomyces cerevisiae)
chain 1: MEELNIDFDVFKKRIELLYSKYNEFEGSPNSLLFVLGSSNAENPYQKTTILHNWLLSYEFPATLIALVPGKVIIITSSAKAKHLQKAIDLFKDPESKITLELWQRNNKEPELNKKLFDDVIALINSAGKTVGIPEKDSYQGKFMTEWNPVWEAAVKENEFNVIDISLGLSKVWEVKDVNEQAFLSVSSKGSDKFMDLLSNEMVRAVDEELKITNAKLSDKIENKIDDVKFLKQLSPDLSALCPPNYKFNFDLLDWTYSPIIQSGKKFDLRVSARSTNDQLYGNGCILASCGIRYNNYCSNITRTFLIDPSEEMANNYDFLLTLQKEIVTNILKPGRTPKEVYESVIEYIEKTKPELVPNFTKNIGSLIGLEFRDSNFILNVKNDYRKIQRGDCFNISFGFNNLKDSQSANNYALQLADTVQIPLDETEPPRFLTNYTKAKSQISFYFNNEEEDNNKKKSSPATKVPSKPDRNSKILRTKLRGEARGGAEDAQKEQIRKENQKKLHEKLEKNGLLRFSAADANGPDSEPRQYFKKYESYVRDSQLPTNIRDLRIHVDWKSQTIILPIYGRPVPFHINSYKNGSKNEEGEYTYLRLNFNSPGSSGGISKKVEELPYEESADNQFVRSITLRSKDGDRMSETFKQIADLKKEATKREQERKALADVVQQDKLIENKTGRTKRLDQIFVRPNPDTKRVPSTVFIHENGIRFQSPLRTDSRIDILFSNIKNLIFQSCKGELIVVIHIHLKNPILMGKKKIQDVQFYREASDMSVDETGGGRRGQSRFRRYGDEDELEQEQEERRKRAALDKEFKYFADAIAEASNGLLTVENTFRDLGFQGVPNRSAVFCMPTTDCLVQLIEPPFLVINLEEVEICILERVQFGLKNFDMVFVYKDFNKPVTHINTVPIESLDFLKQWLTDMDIPYTVSTINLNWATIMKSLQDDPYQFFLDGGWNFLATGSDDEASDESEEEVSEYEASEDDVSDESAFSEDEEGSEVDDDISGDESEDYTGDESEEGEDWDELEKKAARADRGANFRD
chain 2: MSTDFDRIYLNQSKFSGRFRIADSGLGWKISTSGGSAANQARKPFLLPATELSTVQWSRGCRGYDLKINTKNQGVIQLDGFSQDDYNLIKNDFHRRFNIQVEQREHSLRGWNWGKTDLARNEMVFALNGKPTFEIPYARINNTNLTSKNEVGIEFNIQDEEYQPAGDELVEMRFYIPGVIQTNVDENMTKKEESSNEVVPKKEDGAEGEDVQMAVEEKSMAEAFYEELKEKADIGEVAGDAIVSFQDVFFTTPRGRYDIDIYKNSIRLRGKTYEYKLQHRQIQRIVSLPKADDIHHLLVLAIEPPLRQGQTTYPFLVLQFQKDEETEVQLNLEDEDYEENYKDKLKKQYDAKTHIVLSHVLKGLTDRRVIVPGEYKSKYDQCAVSCSFKANEGYLYPLDNAFFFLTKPTLYIPFSDVSMVNISRAGQTSTSSRTFDLEVVLRSNRGSTTFANISKEEQQLLEQFLKSKNLRVKNEDREVQERLQTALGSDSDEEDINMGSAGEDDESVDEDFQVSSDNDADEVAEEFDSDAALSDAEGGSDEERPSKKPKVE
